This note sets out measurements from patent US20240173419A1, “CDK2 DEGRADERS AND USES THEREOF” (Kymera Therapeutics, Inc., priority 2022, published 2024).

SMILES strings stand for the structures.

The target of this test is CDK2 (Homo sapiens, UniProt P24941). Briefly: CDK2 degradation in MKN1 cells (AlphaLISA). To be noted: for CDK2 degradation 14 h: Average Dmax %: 14 h incubation; for DC50: read-out: CDK2 degradation 14 h: Mean external-Abs DC50, 14 h incubation. The procedure:
Degradation of CDK2 in MKN1 cells was measured using AlphaLISA technology (PerkinElmer ALSU-TCDK2-A10K). MKN1 cells were maintained in RPMI1640 medium containing 10% FBS+1× penn/strep. Cells were seeded in 96-well plates (Corning 3599) at a density of 2e4 cells per well in 80 μL of fresh complete growth medium. Cells were incubated overnight at 37° C., 5% CO2. Compounds were then added to the cell assay plates with a final top concentration of 10 μM in a 1:5 dilution series with a total of 11 doses (0.001 nM-10 μM). The final volume per well was 160 μL and the final DMSO concentration was 0.1%. Additionally, wells containing no cells and only complete growth medium were also maintained on the cell assay plates (‘no cell’ wells) and processed along with experimental wells. After 14 hour-incubation at 37° C., 5% CO2, the medium was removed and the cells were washed once with 100 μL of 1×PBS. Following removal of PBS, 40 μL of 1× Lysis Buffer containing 1× protease and phosphatase inhibitors (Roche 4693116001; Roche 4906837001) were added to each well. The cell assay plate was agitated on a plate shaker at 350 rpm for 10 minutes at room temperature. 10 μL of each cell lysate were transferred to a 384-well plate (PerkinElmer 6007290). 10 μL of control lysates (from PerkinElmer ALSU-TCDK2-A10K kit) were added to separate wells to generate a standard curve. Activation Buffer was prepared by diluting 25-fold in combined Reaction Buffer 1 and Reaction Buffer 2. Acceptor Beads were diluted 50-fold in combined Reaction Buffers. 5 μL of Acceptor Mix were added to each well. The plate was sealed with Topseal-Aadhesive film, covered with foil, and incubated in the dark for 1 hour at room temperature. Under subdued light, the Donor Beads were diluted 50-fold in Dilution Buffer. 5 μL of Donor Mix were added to each well under subdued light. The plate was sealed with Topseal-A adhesive film, covered with foil, and incubated in the dark for 1 hour at room temperature. Under subdued light, the plates were analyzed on an EnVision Microplate Reader (PerkinElmer Model 2009-0030). The average signal from ‘no cell’ wells was subtracted from the signal in experimental wells prior to calculating Alpha signal for test compounds and negative control (0.100 DMSO). The data were analyzed using Xlfit (v5.3. 1.3) and the dose-dependent CDK2 degradation data were fit using a four-parameter logistic model to calculate DC50.

`Cc1cc(S(=O)(=O)NCC2(C)CCN(c3ccc(C4CCC(=O)NC4=O)c(Cl)c3)CC2)ccc1Nc1ncc(C(F)(F)F)c(N2CCC[C@](C)(O)C2)n1` (some centres unmarked): the “CDK2 degradation 14 h: Average Dmax %” value is “D (D (<25%))” and the 50% degradation concentration (DC50) was over 1000 nM.
The like results for `Cc1cc(S(=O)(=O)N[C@H]2CC[C@H](CN3CCN(c4ccc(C5CCC(=O)NC5=O)cc4F)CC3)CC2)ccc1Nc1ncc(C(F)(F)F)c(N2CCC[C@](C)(O)C2)n1` (some centres unmarked) were, in that order, “A (A (>75% o))” and under 100 nM.
The like results for `Cc1cc(S(=O)(=O)NCCOCCOCCNC(=O)COc2ccc(C)c(N3CCC(=O)NC3=O)c2)ccc1Nc1ncc2cc(Cl)c(=O)n(C3CCCC3)c2n1` were, in that order, “A (A (>75% o))” and 100 to 500 nM.
Taken in the same sequence, the figures for `Cc1cc(S(=O)(=O)N[C@H]2C[C@@H](CN3CC(c4ccc(C5CCC(=O)NC5=O)c(Cl)c4)C3)C2)ccc1Nc1ncc(C(F)(F)F)c(N2CCC[C@](C)(O)C2)n1` (some centres unmarked) were “B (B (>50% -75%))” and over 1000 nM.
Turning to `Cc1cc(S(=O)(=O)N[C@H]2CCN(CC3CCN(c4ccc(C5CCC(=O)NC5=O)c(F)c4)CC3)C[C@@H]2F)ccc1Nc1ncc(C(F)(F)F)c(N2CCC[C@](C)(O)C2)n1` (some centres unmarked), the “CDK2 degradation 14 h: Average Dmax %” value is “A (A (>75% o))” and the DC50 is under 100 nM.
As for `Cc1cc(S(=O)(=O)N[C@H]2CC[C@H](CN3CCN(c4ccc(C5CCC(=O)NC5=O)cc4F)C[C@H]3C)CC2)ccc1Nc1ncc(C(F)(F)F)c(N2CCC[C@](C)(O)C2)n1` (some centres unmarked), the “CDK2 degradation 14 h: Average Dmax %” value is listed as “A (A (>75% o))” and the DC50 was under 100 nM.
Taken in the same sequence, the figures for `CCc1cc(S(=O)(=O)N[C@H]2CC[C@H](CN3CCN(c4ccc(C5CCC(=O)NC5=O)c(F)c4)CC3)CC2)ccc1Nc1ncc(C(F)(F)F)c(N2CCC[C@](C)(O)C2)n1` (some centres unmarked) were “A (A (>75% o))” and under 100 nM.
`Cc1cc(S(=O)(=O)NC23CCC(CN4CCN(c5ccc(C6CCC(=O)NC6=O)c(Cl)c5)C[C@H]4C)(CC2)OC3)ccc1Nc1ncc(C(F)(F)F)c(N2CCC[C@](C)(O)C2)n1` (some centres unmarked): the “CDK2 degradation 14 h: Average Dmax %” value is reported as “A (A (>75% o))” and the DC50 was under 100 nM.
With `Cc1cc(S(=O)(=O)C2CCN(CCC3CCN(c4cccc5c4n(C)c(=O)n5C4CCC(=O)NC4=O)CC3)CC2)ccc1Nc1ncc2c(n1)N(C1CCCC1)C(=O)C21CC1` (centres unmarked), the “CDK2 degradation 14 h: Average Dmax %” value is “A (A (>75% o))” and the DC50 was under 100 nM.
Taken in the same sequence, the figures for `Cc1cc(S(=O)(=O)C2CC3(CCN(CC4CCN(c5ccc6c(c5F)n(C)c(=O)n6C5CCC(=O)NC5=O)CC4)CC3)C2)ccc1Nc1ncc(C(F)(F)F)c(N2CCC[C@@](C)(O)C2)n1` (some centres unmarked) were “C (C (>25% -50%))” and over 1000 nM.
The like results for `Cc1cc(S(=O)(=O)N[C@H]2CC[C@H](CC#Cc3ccc(C4CCC(=O)NC4=O)c(Cl)c3)CC2)ccc1Nc1ncc(C(F)(F)F)c(N2CCC[C@](C)(O)C2)n1` (some centres unmarked) were, in that order, “D (D (<25%))” and over 1000 nM.
For `Cc1cc(S(=O)(=O)NC2CCN(c3ccc(C4CCC(=O)NC4=O)c(Cl)c3)CC2)ccc1Nc1ncc(C(F)(F)F)c(N2CCC[C@](C)(O)C2)n1` (some centres unmarked), the “CDK2 degradation 14 h: Average Dmax %” value was “B (B (>50% -75%))” and the DC50 was over 1000 nM.
Taken in the same sequence, the figures for `Cc1cc(S(=O)(=O)N[C@H]2CC[C@H](CN3CCN(c4ccc(C5CCC(=O)NC5=O)cc4F)[C@H](C)C3)CC2)ccc1Nc1ncc(C(F)(F)F)c(N2CCC[C@](C)(O)C2)n1` (some centres unmarked) were “A (A (>75% o))” and under 100 nM.
The like results for `Cc1cc(S(=O)(=O)C2CC3(CCN(CC4CCN(c5ccc6c(c5F)n(C)c(=O)n6C5CCC(=O)NC5=O)CC4)CC3)C2)ccc1Nc1ncc(C(F)(F)F)c(N2CC(C)CC(C)(O)C2)n1` (centres unmarked) were, in that order, “A (A (>75% o))” and under 100 nM.
Taken in the same sequence, the figures for `Cc1cc(S(=O)(=O)N[C@H]2C[C@H](OCCN3CCC(c4ccc(C5CCC(=O)NC5=O)c(Cl)c4)CC3)C2)ccc1Nc1ncc(C(F)(F)F)c(N2CCC[C@](C)(O)C2)n1` (some centres unmarked) were “A (A (>75% o))” and under 100 nM.
`Cc1cc(S(=O)(=O)N[C@H]2CC[C@H](CN3CCN(c4ccc(C5CCC(=O)NC5=O)cc4)CC34CC4)CC2)ccc1Nc1ncc(C(F)(F)F)c(N2CCC[C@](C)(O)C2)n1` (some centres unmarked): the “CDK2 degradation 14 h: Average Dmax %” value is reported as “A (A (>75% o))” and the DC50 was under 100 nM.
Taken in the same sequence, the figures for `Cc1cc(S(=O)(=O)C2CC3(CCN(CC4CCN(c5ccc6c(c5F)n(C)c(=O)n6C5CCC(=O)NC5=O)CC4)CC3)C2)ccc1Nc1ncc(C(F)(F)F)c(N2CCC[C@](C)(O)C2)n1` (some centres unmarked) were “A (A (>75% o))” and under 100 nM.
Consider `Cc1cc(S(=O)(=O)NCCCCCNc2cccc3c2C(=O)N(C2CCC(=O)NC2=O)C3=O)ccc1Nc1ncc2cc(C(F)F)c(=O)n([C@@H]3CCC[C@@]3(C)O)c2n1` (some centres unmarked), for which the “CDK2 degradation 14 h: Average Dmax %” value was “C (C (>25% -50%))” and the DC50 is over 1000 nM.
`Cc1cc(S(=O)(=O)N[C@H]2CC[C@H](CN3CCN(c4cccc(N[C@@H]5CCC(=O)NC5=O)c4)CC3)CC2)ccc1Nc1ncc(C(F)(F)F)c(N2CCC[C@](C)(O)C2)n1`: the “CDK2 degradation 14 h: Average Dmax %” value is on record as “A (A (>75% o))” and the DC50 was under 100 nM.
Taken in the same sequence, the figures for `Cc1cc(S(=O)(=O)N[C@H](C)CO[C@H]2CC[C@H](CN3CC(c4ccc5c(c4F)n(C)c(=O)n5C4CCC(=O)NC4=O)C3)CC2)ccc1Nc1ncc(C(F)(F)F)c(N2CCC[C@](C)(O)C2)n1` (some centres unmarked) were “A (A (>75% o))” and under 100 nM.
Take `Cc1cc(S(=O)(=O)NC23CCC(CN4CCN(c5ccc(C6CCC(=O)NC6=O)c(Cl)c5)C[C@@H]4C)(CC2)OC3)ccc1Nc1ncc(C(F)(F)F)c(N2CCC[C@](C)(O)C2)n1` (some centres unmarked): the “CDK2 degradation 14 h: Average Dmax %” value is reported as “A (A (>75% o))” and the half-maximal degradation concentration (DC50) was under 100 nM.
Taken in the same sequence, the figures for `Cc1cc(S(=O)(=O)NC23CCC(CN4CCN(c5ccc(C6CCC(=O)NC6=O)cc5F)CC4)(CC2)OC3)ccc1Nc1ncc(C(F)(F)F)c(N2CCC[C@](C)(O)C2)n1` (some centres unmarked) were “A (A (>75% o))” and under 100 nM.
On to `C[C@]1(O)CCCN(c2nc(Nc3ccc(S(=O)(=O)N[C@H]4CC[C@H](CN5CCN(c6ccc(C7CCC(=O)NC7=O)cc6F)CC5)CC4)cc3F)ncc2C(F)(F)F)C1` (some centres unmarked), for which the “CDK2 degradation 14 h: Average Dmax %” value is on record as “A (A (>75% o))” and the DC50 is under 100 nM.
Taken in the same sequence, the figures for `Cc1cc(S(=O)(=O)N[C@H](C)CO[C@H]2CC[C@H](CN3CC(c4cccc5c4n(C)c(=O)n5C4CCC(=O)NC4=O)C3)CC2)ccc1Nc1ncc(C(F)(F)F)c(N2CCC[C@](C)(O)C2)n1` (some centres unmarked) were “A (A (>75% o))” and under 100 nM.
On to `Cc1cc(S(=O)(=O)N[C@@H]2CCN(CC3CCN(c4ccc(C5CCC(=O)NC5=O)c(F)c4)CC3)C[C@@H]2F)ccc1Nc1ncc(C(F)(F)F)c(N2CCC[C@](C)(O)C2)n1` (some centres unmarked), for which the “CDK2 degradation 14 h: Average Dmax %” value is “A (A (>75% o))” and the DC50 was under 100 nM.
Taken in the same sequence, the figures for `Cc1cc(S(=O)(=O)NCCOCCOCCOCC2CCN(c3ccc(N4CCC(=O)NC4=O)cc3)CC2)ccc1Nc1ncc2cc(Cl)c(=O)n(C3CCCC3)c2n1` were “B (B (>50% -75%))” and 100 to 500 nM.
In the case of `Cc1cc(S(=O)(=O)NCC2(C)CN(C3CCN(c4ccc(C5CCC(=O)NC5=O)c(Cl)c4)CC3)CCO2)ccc1Nc1ncc(C(F)(F)F)c(N2CCC[C@](C)(O)C2)n1` (some centres unmarked), the “CDK2 degradation 14 h: Average Dmax %” value is “C (C (>25% -50%))” and the DC50 was over 1000 nM.
Taken in the same sequence, the figures for `Cc1cc(S(=O)(=O)CCCCN2CCN(CC3CCN(c4ccc5c(c4)n(C)c(=O)n5C4CCC(=O)NC4=O)CC3)CC2)ccc1Nc1ncc2cc(Cl)c(=O)n(C3CCCC3)c2n1` (centres unmarked) were “A (A (>75% o))” and under 100 nM.
The like results for `Cc1cc(S(=O)(=O)N[C@H]2CC[C@H](CN3CCN(c4ccc(N5CCC(=O)NC5=O)c(Cl)c4)CC3)CC2)ccc1Nc1ncc2c(n1)N([C@@H]1CCC[C@@H](O)C1)C(=O)C21CC1` were, in that order, “A (A (>75% o))” and under 100 nM.
Consider `Cc1cc(S(=O)(=O)NC2(C)CC(N3CCN(CC4CCN(c5ccc6c(c5F)n(C)c(=O)n6C5CCC(=O)NC5=O)CC4)CC3)C2)ccc1Nc1ncc(C(F)(F)F)c(N2CCCC(C)(O)C2)n1` (single isomer, unassigned), for which the “CDK2 degradation 14 h: Average Dmax %” value was “A (A (>75% o))” and the DC50 is under 100 nM.
On to `Cc1cc(S(=O)(=O)C2CC3(CCN(CCOC4CN(c5cccc(C6CCC(=O)NC6=O)c5)C4)CC3)C2)ccc1Nc1ncc2cc(Cl)c(=O)n(C3CCCC3)c2n1` (centres unmarked), for which the “CDK2 degradation 14 h: Average Dmax %” value is “C (C (>25% -50%))” and the DC50 was over 1000 nM.
